In the experiment the test system is live bacteria. The experiment in a line: Biocide efficiency, fluorescence detection of ATP, percentage kill / viable bacteria. In kind it is cell-based. On the procedure:
Biocidal efficiency of the biocide and biocide in conjunction with corrosion inhibitors were analyzed using fluorescence to indirectly detect the amount of ATP in a given sample. ATP provides a direct correlation to live bacteria (1fg of ATP=1 cell). Through a standard curve, it is the possible to translate the amount of ATP in a given sample to the number of cells/mL in a given sample. Percentage kill was calculated by normalizing the detected bacterial numbers in a biocide or a biocide and corrosion inhibitor treated sample to untreated sample.

The text below walks through data of patent US11732143B2, “Identification and characterization of novel corrosion inhibitor molecules” (ECOLAB USA INC., priority 2015, dated 2023).

Consider Dodecenyl succinic anhydride, for which the “biocidal efficiency in conjunction with biocide 4” value (120 ppm corrosion inhibitor + 100 ppm biocide 4 (glutaraldehyde)) is “modest increase in the biocidal properties of glutaraldehyde”. Moreover, the “biocidal efficiency of the corrosion inhibitor by itself (viable microorganisms)” value (120 ppm corrosion inhibitor alone) is listed as “not efficient in reducing the number of viable microorganisms by itself”.
